According to US20070167349A1, “Estrogen cancer therapy” (Cell Therapeutics, Inc., priority 2005, published 2007):

Experiments:
RAW cell layers = details: 10 nM to 10 μM PPX, 4 hours; co-stained with anti-EEA-1; data not shown
[1] = system: RAW 264.7 mouse monocyte/macrophage; assay: ^14C-PPX cellular uptake, scintillation counting of ethyl acetate extracted cell layers; details: RAW cultured macrophages
[2] = 24 hours after single i.v. 90 mg/kg PTX equivalent

paclitaxel poliglumex [PPX]
localisation of PPX immunostaining (RAW cell layers): co-localized with an endosomal marker
mechanism of uptake of intact PPX into the cellular compartment [1]: energy-dependent endocytosis, in a dose- and time-dependent manner
CT-2D5 positive cells per field, liver ([2]; cells compatible with Kupffer cells): approximately 20 cpf
CT-2D5 positive cells per field, spleen ([2]; cells with macrophage morphology): 10-15 cpf
CT-2D5 positive cells per field, lung ([2]; compatible with type II pneumocytes): < 1 cpf
CT-2D5 positive cells per field, tumor capsule ([2]; infiltrating macrophages): ≈ 2 cpf
